{"sequences": {"note": "By UniProt entry, the sequences of proteins in these tests, tags left out.", "UniProt P32300, whole entry": "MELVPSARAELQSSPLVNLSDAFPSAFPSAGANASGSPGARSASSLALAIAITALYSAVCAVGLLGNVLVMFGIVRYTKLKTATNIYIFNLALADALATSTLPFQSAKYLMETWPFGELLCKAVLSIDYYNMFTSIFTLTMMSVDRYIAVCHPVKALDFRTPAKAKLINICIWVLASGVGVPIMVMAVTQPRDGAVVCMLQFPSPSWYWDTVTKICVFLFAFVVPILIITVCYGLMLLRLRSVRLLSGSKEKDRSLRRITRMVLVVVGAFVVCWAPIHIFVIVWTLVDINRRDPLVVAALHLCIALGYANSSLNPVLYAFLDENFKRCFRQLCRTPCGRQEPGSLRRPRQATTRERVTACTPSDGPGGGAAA"}, "source": "ChEMBL document CHEMBL1146884", "about": "“Effect of lysine at C-terminus of the Dmt-Tic opioid pharmacophore” (J Med Chem, 2006)", "target": "Delta-type opioid receptor (Mus musculus, UniProt P32300)", "test": "Agonist activity at delta opioid receptor assessed as inhibition of electrically-evoked contraction of mouse vas deferens", "assay_type": "functional, tissue-based"}
{"molecule": "CC(C)[C@H](NC(=O)[C@H](CC(=O)O)NC(=O)[C@H](Cc1ccccc1)NC(=O)[C@@H](C)NC(=O)[C@@H](N)Cc1ccc(O)cc1)C(=O)N[C@H](C(=O)NCC(N)=O)C(C)C", "note": "[DELTORPHIN C]", "values": [{"measurement": "IC50", "value": 0.371, "unit": "nM"}]}
